Measurements: PubChem BioAssay AID602270 (The Scripps Research Institute Molecular Screening Center, 2012)
This is a selection; strong and weak results do not stand in their true shares. The source made the active and inactive calls. No stated cut-off is given here; in the data, active means activation above about 4%; inactive means the rest.

Tested on: Methionine sulfoxide reductase A (Bos taurus)
Assay: methionine sulfoxide reductase A activation – biochemical, absorbance, bovine, HTS, confirmation (AID 602270);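 further: enzyme coupled to thioredoxin and thioredoxin reductase with NADPH; 0% = vehicle wells and 100% = reference activator wells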
Settings: purified bovine MsrA, absorbance read-out; at 10.6 µM; active compounds read high

SMILES | activation
O=C(NC(Sc1ccncn1)C(Cl)(Cl)Cl)c1ccccc1 (configuration not stated) | inactive: 2.45%
CC(C)(C)C(=O)NC(Sc1ccncn1)C(Cl)(Cl)Cl (configuration not stated) | active: 4.53%
